One assay concerns the target Cannabinoid receptor 2 (Homo sapiens, UniProt P34972). Put plainly: Displacement of [3H]-CP-55940 from human recombinant CB2 receptor expressed in HEK293 cells after 90 mins by Competition binding assay.
In another assay the target is Cannabinoid receptor 1 (Homo sapiens, UniProt P21554).

Amino acid sequences for entries named in this document (tags omitted).
UniProt P34972, whole entry: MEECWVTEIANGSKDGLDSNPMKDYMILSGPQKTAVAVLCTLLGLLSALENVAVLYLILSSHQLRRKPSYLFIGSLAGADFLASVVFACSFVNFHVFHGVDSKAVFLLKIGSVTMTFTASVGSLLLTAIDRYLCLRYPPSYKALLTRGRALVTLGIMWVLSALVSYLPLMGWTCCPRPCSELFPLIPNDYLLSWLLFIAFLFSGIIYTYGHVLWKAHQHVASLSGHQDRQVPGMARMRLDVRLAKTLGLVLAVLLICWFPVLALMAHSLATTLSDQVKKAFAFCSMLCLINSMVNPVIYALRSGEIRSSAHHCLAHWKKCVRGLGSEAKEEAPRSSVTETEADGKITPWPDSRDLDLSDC
UniProt P21554, whole entry: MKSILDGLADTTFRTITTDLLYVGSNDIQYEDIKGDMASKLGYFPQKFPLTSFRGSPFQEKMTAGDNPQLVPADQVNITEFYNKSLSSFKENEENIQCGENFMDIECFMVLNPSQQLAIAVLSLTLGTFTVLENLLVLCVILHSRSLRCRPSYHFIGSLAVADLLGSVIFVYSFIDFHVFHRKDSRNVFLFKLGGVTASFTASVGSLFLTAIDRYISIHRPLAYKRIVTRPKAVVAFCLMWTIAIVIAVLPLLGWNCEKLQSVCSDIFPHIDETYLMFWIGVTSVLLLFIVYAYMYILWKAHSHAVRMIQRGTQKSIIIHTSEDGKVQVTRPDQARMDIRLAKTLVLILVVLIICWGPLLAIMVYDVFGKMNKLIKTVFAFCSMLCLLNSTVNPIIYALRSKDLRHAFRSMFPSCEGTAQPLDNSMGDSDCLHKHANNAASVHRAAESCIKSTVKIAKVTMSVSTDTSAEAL

Bounds are passed on as bounds.

`CCCCCn1c(=O)c(C(=O)NC23CC4CC(CC(C4)C2)C3)cc2cc(C(C)C)ccc21`: the Ki at Cannabinoid receptor 2 worked out at 0.26 nM; at Cannabinoid receptor 1, 11 nM.

Turning to `CCCCCn1c2c(c(O)c(C(=O)NC34CC5CC(CC(C5)C3)C4)c1=O)CCCC2`, the figures for the Ki on Cannabinoid receptor 2 and at Cannabinoid receptor 1 were 0.37 nM and 8.7 nM, respectively.

Turning to `CCCCCn1c(=O)c(C(=O)NC23CC4CC(CC(C4)C2)C3)c(O)c2ccccc21`, the inhibition constant Ki is 0.97 nM at Cannabinoid receptor 2 and 108 nM on Cannabinoid receptor 1.

Regarding `CCCCCn1cc(C(=O)NC23CC4CC(CC(C4)C2)C3)c(=O)c2cc(C(C)C)c(F)cc21`, the inhibitory constant (Ki) on Cannabinoid receptor 2 was 7.5 nM; at Cannabinoid receptor 1, greater than 10000 nM.

Usually Ki stands for a dissociation constant, usually derived from enzyme kinetics or from competition with a known ligand.

Values taken from BindingDB's records for doi:10.1021/acs.jmedchem.5b01559 (University of Siena, 2016).
